Laboratory results as given in PMC5648829 (Scientific Reports, 2017).

Protein sequences, listed by entry. Tags and fused reporters are not part of them.
UniProt P09960, whole entry: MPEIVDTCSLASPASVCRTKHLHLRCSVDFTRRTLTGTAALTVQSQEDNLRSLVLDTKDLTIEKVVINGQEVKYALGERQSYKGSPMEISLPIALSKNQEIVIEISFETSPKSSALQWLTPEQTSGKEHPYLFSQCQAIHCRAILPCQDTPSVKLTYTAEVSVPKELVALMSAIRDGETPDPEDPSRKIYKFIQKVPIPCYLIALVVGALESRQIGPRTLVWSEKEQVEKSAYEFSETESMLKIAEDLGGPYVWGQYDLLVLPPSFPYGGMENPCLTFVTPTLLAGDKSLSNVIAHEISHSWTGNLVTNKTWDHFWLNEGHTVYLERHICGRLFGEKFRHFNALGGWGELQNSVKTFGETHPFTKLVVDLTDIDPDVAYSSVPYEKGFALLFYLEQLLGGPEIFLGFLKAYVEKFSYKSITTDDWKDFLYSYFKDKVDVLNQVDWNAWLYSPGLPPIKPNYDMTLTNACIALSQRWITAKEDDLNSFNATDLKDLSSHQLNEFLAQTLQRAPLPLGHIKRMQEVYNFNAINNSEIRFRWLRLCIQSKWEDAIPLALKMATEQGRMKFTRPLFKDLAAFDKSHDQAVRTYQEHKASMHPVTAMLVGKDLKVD

Key:
Assay type in all cases: biochemical
[1] = biological target: T1, LTA4H (Homo sapiens, UniProt P09960); test: LTA4H aminopeptidase assay with surrogate substrate Arg-AMC; details: read-out: IC50 Arg-AMC
[2] = biological target: T1, LTA4H; test: LTA4H aminopeptidase assay with surrogate substrate Pro-AMC; details: read-out: IC50 Pro-AMC
[3] = biological target: T1, LTA4H; test: LTA4H aminopeptidase assay with surrogate substrate Ala-AMC; details: for Effect on Ala-AMC hydrolysis: Table 1, whether compound increased or inhibited hydrolysis of Ala-AMC by the enzyme
[4] = biological target: T1, LTA4H; test: PGP peptidolysis assay by LC-MS/MS; details: for IC50: read-out: IC50 PGP
[5] = Table 1, average of minimum two biological replicates

Row | IC50 [1, 5] | IC50 ([2]; Table 1) | Effect on Ala-AMC hydrolysis [3] | Ratio IC50 PGP/Arg-AMC ([4]; Table 1) | IC50 ([4]; Table 1) | IC50 ([1]; Table 2) | IC50 ([2]; Table 2) | IC50 ([3]; read-out: IC50 Ala-AMC, Table 2) | IC50 ([4]; Table 2) | Structure (SMILES)
1 | 13 µM | 5.43 µM | increase | 0.27 | 3.53 µM | – | – | – | – | c1ccc(Oc2ccc(-c3cnco3)cc2)cc1
2 | 6.89 µM | 5.89 µM | increase | 0.82 | 5.68 µM | – | – | – | – | Nc1ccc(Cc2ccccc2)cn1
3 | 0.092 µM | 0.116 µM | increase | 0.11 | 0.01 µM | – | – | – | – | Nc1nc(-c2ccc(Oc3ccccc3)cc2)cs1
4 | 4.45 µM | 4.05 µM | increase | 0.44 | 1.97 µM | – | – | – | – | OCc1ccc(Oc2ccccc2)cc1
5 | – | – | – | – | – | 0.033 µM | 0.047 µM | > 25 µM | 0.133 µM | O=Cc1ccc(Oc2nc3ncccc3s2)cc1
